EC50 and IC50 data for one compound are collected here from article PMC10344891, “Continuous enzyme activity assay for high-throughput classification of histone deacetylase 8 inhibitors” (Exploration of Targeted Anti-tumor Therapy, 2023).

Test [1] has as its target T1, human KDAC8 (Homo sapiens, UniProt Q9BY41).
T1 sequence (Q9BY41 1-377): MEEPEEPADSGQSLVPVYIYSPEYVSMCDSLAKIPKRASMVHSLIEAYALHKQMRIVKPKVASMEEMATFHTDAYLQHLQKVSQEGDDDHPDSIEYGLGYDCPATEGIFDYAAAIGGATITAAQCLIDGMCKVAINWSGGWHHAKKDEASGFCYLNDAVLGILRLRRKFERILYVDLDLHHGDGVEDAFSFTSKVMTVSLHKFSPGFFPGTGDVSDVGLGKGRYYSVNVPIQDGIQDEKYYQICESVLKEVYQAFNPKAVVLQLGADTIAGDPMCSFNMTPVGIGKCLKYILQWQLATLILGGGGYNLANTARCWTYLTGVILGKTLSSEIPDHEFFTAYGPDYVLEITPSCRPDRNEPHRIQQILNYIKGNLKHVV
In words: Progress curves of continuous KDAC8 assay: relative KDAC8 activity after 5,000 s (stabilization curves).

The target in test [2] is T1, human KDAC8. The test is described as follows: Continuous (one-step) KDAC8 enzyme activity assay, IC50 determination. It counts as biochemical. More on the design: full-length human KDAC8 was produced in E. coli BL21 (DE3); His6-SUMO (N, cleaved yes); made in house; host or cells: E. coli BL21 (DE3), pET14b vector.

What is called EC50 is the concentration at which the effect is half-maximal. A low value points to greater potency. What is called IC50 is the concentration that gives 50% inhibition. As to `O=C(CCCCCCC(=O)Nc1ccccc1)NO` [SAHA, suberoylanilide hydroxamic acid], the midpoint of the response at human KDAC8 [1], the EC50, lay at 3.2 ± 0.9 µM. In addition, the IC50 at human KDAC8 [2] worked out at 3.6 ± 0.9 µM.
